Measurements as given in article PMC10997663, “Mechano-sensitivity of β2-adrenoceptors enhances constitutive activation of cAMP generation that is inhibited by inverse agonists” (Communications Biology, 2024).

Tests used:
β2-adrenoceptor (β2AR) [1] = assay: cells; design: species or system HEK293G overexpressing TS-SNAP-β2AR; GloSensor cAMP luminescence; inverse agonist inhibition of the peak basal (mechanically stimulated) response; conditions: for activity at 10 µM: HEK293G, read-out: % of control remaining
β2-adrenoceptor (β2AR) [2] = assay: cells; design: species or system HEK293G overexpressing TS-SNAP-β2AR; GloSensor cAMP luminescence; inverse agonist inhibition of the peak basal (mechanically stimulated) response; conditions: for activity at 10 µM: HEK293G, read-out: % of control remaining; remark: listed apart in the source

Row | Compound | % of control remaining (β2-adrenoceptor (β2AR) [1]; added at time zero, 10 µM, inhibitor) [%] | % of control remaining (β2-adrenoceptor (β2AR) [2]; 30 min preincubation, 10 µM, inhibitor) [%] | activity at 10 µM (β2-adrenoceptor (β2AR) [1]) [%] | activity at 10 µM (β2-adrenoceptor (β2AR) [2]) [%]
1 | Cc1ccc(OCC(O)C(C)NC(C)C)c2c1CCC2 (racemic) [ICI-118551, (±)-1-[2,3-(dihydro-7-methyl-1H-inden-4-yl)oxy]-3-[(1-methylethyl)amino]-2-butanol hydrochloride] | 25.14 ± 3.36 | 25.09 ± 3.66 | – | –
2 | CC(C)NCC(O)COc1cccc2[nH]c3ccccc3c12 (stereo not drawn) [carazolol] | – | – | 40.6 ± 2.84 | 42 ± 7.68
3 | CC(C)NCC(O)COc1cccc2ccccc12 (stereo not drawn) [propranolol] | – | – | 39 ± 5.81 | 58.5 ± 9.88

Structures can show the parent of a compound that is named as a salt. Where two headings read alike, the source gives them in different places.
